Assay results taken from ChEMBL document CHEMBL3414430 (J Med Chem, 2015).

Biological target: T1, Histone deacetylase 8 (Homo sapiens, UniProt Q9BY41)
T1 sequence (Q9BY41 whole entry): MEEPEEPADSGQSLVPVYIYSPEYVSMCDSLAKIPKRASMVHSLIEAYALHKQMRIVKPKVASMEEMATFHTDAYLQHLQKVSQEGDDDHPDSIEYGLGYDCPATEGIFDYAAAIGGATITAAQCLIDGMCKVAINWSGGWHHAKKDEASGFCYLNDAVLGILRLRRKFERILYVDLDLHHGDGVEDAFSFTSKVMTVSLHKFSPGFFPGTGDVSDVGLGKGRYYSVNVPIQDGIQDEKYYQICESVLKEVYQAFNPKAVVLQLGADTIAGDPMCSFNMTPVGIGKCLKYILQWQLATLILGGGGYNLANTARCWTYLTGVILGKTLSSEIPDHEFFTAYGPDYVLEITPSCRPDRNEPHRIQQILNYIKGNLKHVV

O=C(CCCCCCC(=O)Nc1ccccc1)NO [VORINOSTAT]
IC50: 660 nM
